miR-122 sensor = blocks miR-122 activity in Huh7 sensor cells; Huh7 miR-122 Renilla luciferase sensor, 48 h; neutral wells = 0, positive control = 100; activation (reporter increase), % at 12.5 µM; 340,000 tested, 0.3% active;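 active = mean replicate activation score at least 90 and every replicate individually at or above 90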;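 note: higher luciferase means less miR-122 activity so hits act as miR-122 inhibitors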
Cneo AK release = Cryptococcus neoformans lysis via adenylate kinase release; 360,000 tested, 0.2% active; AID 651654; C. neoformans lysis, adenylate kinase release luminescence, 4 h; normalised: neutral wells 0, clomiphene wells 100; lysis activity, % at 15 µM;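 active = mean lysis activity across replicates of at least 80%, whatever share of replicates individually reach that level; inactive = mean lysis activity below 80%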
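Assay system: C. neoformans cells. Amount: yeast cell density of 5 × 10^6 cells/mL. Technique: AK luminescence. Buffer or medium: YPD. Times: static 4 h at 37 °C with compound, 1 h detection. Dosing: single-point compound dose. Read-out: lysis from increased AK signal.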
Env fusion inh = inhibitors of HIV Env-mediated cell fusion | HeLa-JRFL Env/CEM21 cell fusion, luciferase | inhibition, % at 12.3 µM | 360,000 tested, 1.1% active | AID 651610;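 active = mean replicate inhibition score of at least 50 and every replicate individually at or above 50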
FN deposit inh = fibronectin deposition inhibition. AH1F fibroblasts, Alexa488-fibronectin deposition fluorescence, overnight. inhibition, % at 12.6 µM. 350,000 tested, 0.086% active. AID 743247;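 active = mean inhibition across replicates of 30% or more, regardless of how many single replicates reach that level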
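Assay system: AH1F fibroblasts assembling fluorescent fibronectin matrix; Amount: 10000 AH1F cells per well; Buffer or medium: DMEM, 2% serum; Probe or stimulus: Alexa488-fibronectin, 24 nM final in well; Doses: single compound dose, delivered by pin transfer; Incubation: 1 h adhesion, overnight exposure; Measured by: fluorescence 485/525 nm; Read-out: fibronectin deposition inhibition.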
PGC1a acetyl inh = lowers PGC1a acetylation signal in U2OS cells; AlphaScreen anti-acetyl-lysine; with virally co-expressed GCN5 acetyltransferase; inhibition, % at 15.6 µM; 350,000 tested, 0.17% active; AID 651687;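 active = every replicate shows inhibition of at least 40%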
UUG fidelity = yeast start codon fidelity modulation; activity score, % at 18.7 µM; actives 0.13% (n = 350,000); S. cerevisiae UUG-firefly luciferase reporter, luminescence/redox ratio; AID 602363;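 active means replicate mean at a twofold rise or more, about +100% in these data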;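 further: firefly luciferase made from a UUG start codon reports start codon fidelity; reporter light over untreated wells divided by growth signal over untreated wells; some hits fall short of that in this replicate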
Large screens that a line does not name were inactive; [ ] = dose if it differs, or a comment. Sampled rows, rich in hits. Any-hit rate of the full collection: about 1.5%.

COc1ccc(CCCc2nnc(SCC(=O)Nc3ccc(OC)cc3)o2)cc1	none (no result: FN deposit inh)
O=C1c2ccccc2C(=O)N1CCn1nc(Cl)nc1Cl	none (no result: Env fusion inh, FN deposit inh)
Cc1cc(OCc2cc(C(=O)N3CCC(Oc4cccnc4)CC3)no2)cc(C)c1Cl	Env fusion inh 67 (no result: FN deposit inh, PGC1a acetyl inh)
COc1cccc(-c2ccc(C3[C@@H]4CN(S(=O)(=O)c5ccccc5F)C[C@H]3N4)cc2)c1 (stereo not given in full)	none (no result: miR-122 sensor, Cneo AK release, Env fusion inh, UUG fidelity)
O=C(c1ccc(S(=O)(=O)Nc2ccc(F)cc2)cc1)N1CCN(C(=O)c2ccco2)CC1	Env fusion inh 73
CCOC(=O)C(CC)(CC)C(=O)/C=C/c1ccc(Br)cc1	PGC1a acetyl inh 57 (no result: Env fusion inh, FN deposit inh)
CCOC(=O)C(=Cc1ccc(Br)cc1)C(=O)OCC	none
S=C(NCc1cccs1)Nc1cc(Cl)cc(Cl)c1	none (no result: miR-122 sensor, Cneo AK release, UUG fidelity)
CC(C)c1ccc(NC(=S)NCc2cccs2)cc1	miR-122 sensor 102
S=C(NCc1cccs1)Nc1cccc(Cl)c1	miR-122 sensor 220 (no result: Cneo AK release, Env fusion inh, FN deposit inh, UUG fidelity)
O=C(c1cc2n(n1)C(C(F)(F)F)CC(c1ccc(Cl)cc1)N2)N1CCCC1 (stereo not given)	none
CCOc1ccc2ccccc2c1/C=N\NC(=O)c1ccc([N+](=O)[O-])cc1	none
CCc1ccc(-c2nc(CSCC(=O)N3CCN(c4ccccn4)CC3)c(C)o2)cc1	Env fusion inh 86 (no result: PGC1a acetyl inh)
Cc1ccc(-c2nc(CSCC(=O)N3CCN(C(=O)c4ccco4)CC3)c(C)o2)cc1	none
Cc1ccc(-c2nc(CSCC(=O)N3CCOCC3)c(C)o2)cc1	none (no result: miR-122 sensor, Cneo AK release, PGC1a acetyl inh, UUG fidelity)
Cc1ccc(-c2nc(CSCC(=O)N3CCN(c4ccccn4)CC3)c(C)o2)cc1	Env fusion inh 57
CCCC(=O)Nc1cc(OC)c(NC(=S)Nc2cccc(C)c2)cc1OC	none (no result: PGC1a acetyl inh)
CC1CCCN(C(=O)c2sc3cc([N+](=O)[O-])ccc3c2Cl)C1 (stereo not given)	none (no result: Env fusion inh, FN deposit inh)
COc1cccc(-c2ncc3ccccc3c2COC(=O)N(C)C)c1	Env fusion inh 61
O=S1(=O)c2ccc(Br)cc2N2CCC[C@@H]2CN1Cc1ccc(Cl)cc1	none (no result: PGC1a acetyl inh)
O=S1(=O)c2ccc(Br)cc2N2CCC[C@H]2CN1Cc1ccccc1	miR-122 sensor 140
Cc1c(N(C)C(=O)C23CC4CC(CC(C4)C2)C3)c(=O)n(-c2ccccc2)n1C	none (no result: Env fusion inh, FN deposit inh)
CCCCCCCCCCCCCCCC[n+]1ccc(/C=N/O)cc1	Env fusion inh 89 (no result: miR-122 sensor, Cneo AK release, FN deposit inh, PGC1a acetyl inh, UUG fidelity)
CC(C#N)(Nc1ccc(Cl)cc1)c1cccnc1 (stereo not given)	none (no result: PGC1a acetyl inh)
O=C(CSc1nc2ncc(Cl)cc2[nH]1)c1c[nH]c2ccccc12	FN deposit inh 33
O=C(CSc1nc2ccc(Cl)cc2[nH]1)c1c[nH]c2ccccc12	none
CCOC(=O)Cn1c(=NC(=O)C(C)(C)C)sc2cc([N+](=O)[O-])ccc21	none (no result: miR-122 sensor, Cneo AK release, PGC1a acetyl inh, UUG fidelity)
COC(=O)[C@@]1(Cc2ccc(F)cc2)[C@H]2c3cc(C(=O)N(C)C)n(CCO)c3C[C@H]2CN1C(=O)c1ccccc1	Env fusion inh 80 (no result: miR-122 sensor, Cneo AK release, FN deposit inh, PGC1a acetyl inh, UUG fidelity)
COC(=O)[C@@]1(Cc2ccc(F)cc2)[C@H]2c3cc(C(=O)N4CCCC4)n(CCc4ccccn4)c3C[C@H]2CN1C(=O)c1ccccc1	FN deposit inh 44 (no result: miR-122 sensor, Cneo AK release, PGC1a acetyl inh, UUG fidelity)
CC(=O)NC(=S)Nc1cc(C(F)(F)F)ccc1N1CCOCC1	none (no result: PGC1a acetyl inh)
O=c1[nH]c(=O)c2[nH]c(=S)[nH]c2[nH]1	PGC1a acetyl inh 60 (no result: Cneo AK release, UUG fidelity)
CC(CNC(=S)Nc1cc(F)cc(F)c1)CSc1ccc(Cl)cc1 (stereo not given)	Env fusion inh 78
C[C@@H]1CCCCO[C@@H](CN(C)Cc2ccc(C(F)(F)F)cc2)[C@H](C)CN([C@H](C)CO)C(=O)c2cc(NC(=O)C3CCCCC3)ccc2O1	Env fusion inh 71[16.7 µM] (no result: FN deposit inh)
C[C@@H]1CCCCO[C@@H](CN(C)Cc2ccc(C(F)(F)F)cc2)[C@@H](C)CN([C@@H](C)CO)C(=O)c2cc(NC(=O)Nc3ccc(C(F)(F)F)cc3)ccc2O1	none
C[C@H]1CCCCO[C@@H](CN(C)Cc2ccc(C(F)(F)F)cc2)[C@@H](C)CN([C@@H](C)CO)C(=O)c2cc(NC(=O)Nc3ccc(F)cc3)ccc2O1	Env fusion inh 87[16.7 µM]
C[C@@H]1CCCCO[C@@H](CN(C)Cc2ccc(C(F)(F)F)cc2)[C@H](C)CN([C@H](C)CO)C(=O)c2cc(NC(=O)Nc3ccc(C(F)(F)F)cc3)ccc2O1	Env fusion inh 70[16.7 µM]
C[C@@H]1CCCCO[C@H](CN(C)Cc2ccc(C(F)(F)F)cc2)[C@@H](C)CN([C@@H](C)CO)C(=O)c2cc(NC(=O)C3CCCCC3)ccc2O1	none (no result: FN deposit inh)
CC(C)NC(=O)Nc1ccc2c(c1)C(=O)N([C@H](C)CO)C[C@@H](C)[C@H](CN(C)Cc1ccc(C(F)(F)F)cc1)OCCCC[C@@H](C)O2	Env fusion inh 75[16.7 µM]
C[C@@H]1CCCCO[C@@H](CN(C)Cc2ccc(C(F)(F)F)cc2)[C@H](C)CN([C@H](C)CO)C(=O)c2cc(NC(=O)Nc3ccc(F)cc3)ccc2O1	Env fusion inh 60[16.7 µM]
Cc1ccc(NCc2nnc(SCC(=O)Nc3ccccc3)n2CC2CCCO2)c(C)c1 (stereo not given)	miR-122 sensor 151 (no result: Cneo AK release, PGC1a acetyl inh, UUG fidelity)
CC(C)CCCCCCCCCCCCC(=O)NCC(=O)NC1C(O)C(O)C(Nc2ncnc3nc[nH]c23)OC1C(O)CO (stereo not given)	PGC1a acetyl inh 96 (no result: Cneo AK release, Env fusion inh, FN deposit inh, UUG fidelity)
CC(O)CNc1ncnc2nc[nH]c12 (stereo not given)	none
O=c1cnn(-c2ccc(Cl)cc2Cl)c(-c2ccccc2)c1	none
O=C(NCCCN1CCCCC1)c1ccc2c(c1)ncn2C1CCCC1	none (no result: miR-122 sensor, Cneo AK release, PGC1a acetyl inh, UUG fidelity)
O=C(Nc1cccnc1)c1cc(-c2ccccc2)on1	none
CC(C)n1cc(NC(=O)c2cc(-c3ccccc3)on2)cn1	miR-122 sensor 114 (no result: Env fusion inh, FN deposit inh)
Cc1ccc(S(=O)(=O)N2CC[C@@H]3[C@H](CO)Nc4ccc(C#Cc5cccc(F)c5)cc4[C@@H]32)cc1	none (no result: Env fusion inh)
O=C(CN(C(=O)CNC(=O)c1ccco1)c1ccc2c(c1)OCCO2)NC1CCCCC1	none (no result: miR-122 sensor, Cneo AK release, UUG fidelity)
CCOP(=O)(c1ccc(N(C)C)cc1)C(O)c1c(Cl)cccc1Cl (stereo not given)	none
CCCOP(=O)(c1ccc(N(C)C)cc1)C(O)c1c(Cl)cccc1Cl (stereo not given)	Env fusion inh 73
CC(C)CCOP(=O)(c1ccc(N(C)C)cc1)C(O)c1c(Cl)cccc1Cl (stereo not given)	Env fusion inh 75
N#C[C@H]1[C@H](c2ccccc2C2=CCCCC2)[C@H](CO)N1C(=O)C1CCOCC1	none (no result: miR-122 sensor, Cneo AK release, Env fusion inh, UUG fidelity)
O=C(Nc1cc(Cl)cc(Cl)c1)C1CCC(=O)N1Cc1ccccc1Cl (stereo not given)	Env fusion inh 53
Cc1noc(C)c1NC(=O)Nc1ccc2c(c1)C(=O)N([C@H](C)CO)C[C@H](C)[C@@H](CN(C)C(=O)Nc1ccc(F)cc1)OCCCC[C@@H](C)O2	none

Source: PubChem BioAssay
